Data: ChEMBL document CHEMBL4359834, “(S)-4-(Difluoromethyl)-5-(4-(3-methylmorpholino)-6-morpholino-1,3,5-triazin-2-yl)pyridin-2-amine (PQR530), a Potent, Orally Bioavailable, and Brain-Penetrable Dual Inhibitor of Class I PI3K and mTOR Kinase” (J Med Chem, 2019)

species: Homo sapiens; experiment: Selectivity ratio, ratio of Ki for recombinant N-terminal His6-tagged PI3K p110alpha (unknown origin) to Ki for recombinant human C-terminal GST-tagged mTOR (1360 to 2549 amino acids) expressed in insect cells

SMILES | Ratio Ki
C[C@@H]1COC[C@@H](C)N1c1nc(-c2cnc(N)cc2C(F)(F)F)nc(N2CCOCC2)n1 | 1.38
C[C@H]1COCCN1c1nc(-c2cnc(N)cc2C(F)F)nc(N2CCOCC2)n1 | 1.5
C[C@@H]1COCCN1c1nc(-c2cnc(N)cc2C(F)(F)F)nc(N2CCOC[C@H]2C)n1 | 4.01
C[C@H]1COCCN1c1nc(-c2cnc(N)nc2C(F)(F)F)nc(N2CCOCC2)n1 | 0.11
C[C@H]1COCCN1c1cc(-c2cnc(N)cc2C(F)F)nc(N2CCOCC2)n1 | 0.32
Nc1cc(C(F)(F)F)c(-c2nc(N3CCOCC3)nc(N3CC4CCC(C3)O4)n2)cn1 | 0.65
C[C@H]1COCCN1c1nc(-c2cnc(N)cc2C(F)(F)F)nc(N2CCOCC2)n1 | 0.33
C[C@@H]1COCCN1c1nc(-c2cnc(N)cc2C(F)(F)F)nc(N2CCOCC2)n1 | 0.49
Nc1cc(C(F)(F)F)c(-c2nc(N3C4CCC3COC4)nc(N3C4CCC3COC4)n2)cn1 | 60.5
C[C@@H]1COC[C@H](C)N1c1nc(-c2cnc(N)cc2C(F)(F)F)nc(N2[C@H](C)COC[C@@H]2C)n1 | 0.79
C[C@H]1COCCN1c1nc(-c2cnc(N)nc2C(F)F)nc(N2CCOCC2)n1 | 0.18
C[C@H]1COCCN1c1nc(-c2cnc(N)cc2C(F)F)cc(N2CCOCC2)n1 | 1.16
C[C@@H]1COC[C@H](C)N1c1nc(-c2cnc(N)cc2C(F)(F)F)nc(N2CCOCC2)n1 | 1.42
C[C@H]1COC[C@H](C)N1c1nc(-c2cnc(N)cc2C(F)(F)F)nc(N2CCOCC2)n1 | 0.26
Nc1cc(C(F)(F)F)c(-c2nc(N3CCOCC3)nc(N3C4CCC3COC4)n2)cn1 | 0.46
C[C@H]1COCCN1c1nc(-c2cnc(N)nc2C(F)F)cc(N2CCOCC2)n1 | 0.27
C[C@H]1COCCN1c1nc(-c2cnc(N)cc2C(F)(F)F)nc(N2CCOC[C@@H]2C)n1 | 0.05
C[C@H]1COC[C@H](C)N1c1nc(-c2cnc(N)cc2C(F)(F)F)nc(N2[C@@H](C)COC[C@@H]2C)n1 | 0.14
Nc1cc(C(F)(F)F)c(-c2nc(N3CC4CCC(C3)O4)nc(N3CC4CCC(C3)O4)n2)cn1 | 4.12
C[C@H]1COCCN1c1cc(-c2cnc(N)nc2C(F)F)nc(N2CCOCC2)n1 | 0.01
C[C@@H]1COC[C@@H](C)N1c1nc(-c2cnc(N)cc2C(F)(F)F)nc(N2[C@H](C)COC[C@H]2C)n1 | 32.7
